Each structure is given as a SMILES string. Counter-ions that a name gives are not always drawn.

This experiment has as its system M173.
On to `O=[N+]([O-])c1cc(C(F)(F)F)c(Cl)c([N+](=O)[O-])c1Nc1ncc(C(F)(F)F)cc1Cl` [Fluazinam], for which the “Survival rate at 2 h (%)” value came to 56.00% and the “Survival rate at 6 h (%)” value is given as 58.67%.
Regarding `CCCOC(=O)NCCCN(C)C` [Propamocarb hydrochloride], the “Survival rate at 2 h (%)” value was 76.00% and the “Survival rate at 6 h (%)” value is 75.33%.
In the case of `O=P([O-])(O)O.[K+]`, the “Survival rate at 2 h (%)” value came out at 89.33% and the “Survival rate at 6 h (%)” value worked out at 78.00%.
Regarding `COCC(=O)N(c1c(C)cccc1C)[C@H](C)C(=O)OC` [Metalaxyl-M], the “Survival rate at 2 h (%)” value is recorded as 103.80% and the “Survival rate at 6 h (%)” value is reported as 97.47%.
Regarding `O=[N+]([O-])c1c(Cl)c(Cl)c(Cl)c(Cl)c1Cl` [Quintozene], the “Survival rate at 2 h (%)” value was 124.05% and the “Survival rate at 6 h (%)” value was found to be 85.44%.
As to `NC(N)=O` [Urea], the “Survival rate at 2 h (%)” value was determined as 75.33% and the “Survival rate at 6 h (%)” value is listed as 72.67%.
In the same order, the values of `CC1(C)[C@H](C(=O)O[C@H](C#N)c2cccc(Oc3ccccc3)c2)[C@@H]1/C=C(\Cl)C(F)(F)F` [Gamma-cyhalothrin] are 65.82% and 103.80%.
With `CN/C(=N/CC1CCOC1)N[N+](=O)[O-]` (stereo not shown) [Dinotefuran], the “Survival rate at 2 h (%)” value is listed as 87.97% and the “Survival rate at 6 h (%)” value turned out to be 83.54%.
For the molecule `COC(=O)Nc1nc2ccccc2[nH]1` [Carbendazim], the “Survival rate at 2 h (%)” value was found to be 79.33% and the “Survival rate at 6 h (%)” value was found to be 70.00%.
On to `N#Cc1c(Cl)c(Cl)c(Cl)c(C#N)c1Cl` [Chlorothalonil], for which the “Survival rate at 2 h (%)” value is reported as 86.71% and the “Survival rate at 6 h (%)” value was 89.24%.
On to `CN(C)C(=S)SSC(=S)N(C)C` [Thiram], for which the “Survival rate at 2 h (%)” value is on record as 79.11% and the “Survival rate at 6 h (%)” value was found to be 86.08%.
On to `CCO[PH](=O)O` [Fosetyl-aluminum], for which the “Survival rate at 2 h (%)” value was found to be 86.08% and the “Survival rate at 6 h (%)” value is recorded as 82.91%.
As to `N.N.O=S(=O)(O)O` [Ammonium sulfate], the “Survival rate at 2 h (%)” value amounted to 75.33% and the “Survival rate at 6 h (%)” value is reported as 80.67%.
With `CN1COCN(Cc2cnc(Cl)s2)/C1=N\[N+](=O)[O-]` [Thiamethoxam], the “Survival rate at 2 h (%)” value stood at 103.16% and the “Survival rate at 6 h (%)” value was determined as 111.39%.

Values taken from patent US12648569B2 (priority 2022, dated 2026).
